Reference: patent US8067424B2 (dated 2011)

The chains behind the UniProt entries cited, without tags or fusion partners.
UniProt P50750, whole entry: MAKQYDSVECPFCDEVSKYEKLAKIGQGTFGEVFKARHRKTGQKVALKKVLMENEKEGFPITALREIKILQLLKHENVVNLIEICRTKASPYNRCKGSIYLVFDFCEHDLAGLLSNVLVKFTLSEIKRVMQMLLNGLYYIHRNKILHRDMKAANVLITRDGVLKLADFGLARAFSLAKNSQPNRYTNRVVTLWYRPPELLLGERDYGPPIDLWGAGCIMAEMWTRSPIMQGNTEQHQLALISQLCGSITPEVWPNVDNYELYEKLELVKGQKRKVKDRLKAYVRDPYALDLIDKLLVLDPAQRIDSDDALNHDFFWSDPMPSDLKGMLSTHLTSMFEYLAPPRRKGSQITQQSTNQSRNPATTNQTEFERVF

Target: CDK9/cyclin T complex (Homo sapiens, UniProt P50750)
Assay: CDK9/cyclin T kinase assay (as for CDK7)
Format: biochemical
[1] = CDK9 kinase inhibition in vitro (IC50) in nM, Table 7, mean of three experiments

SMILES	IC50 (CDK9 IC50 (nM), Table 2) [nM]	IC50 [1] [nM]
CC(C)c1cnn2c(NCc3ccccc3)cc(N[C@@H](CO)[C@@H](O)CO)nc12 [Example 9]	10 to 100	–
CC(C)c1cnn2c(NCc3ccccc3)cc(N[C@@H](CO)[C@H](O)CO)nc12 [Example 8]	10 to 100	–
CC(C)c1cnn2c(NCc3ccccc3)cc(N[C@@H](CO)[C@@H](O)CO)nc12 [ICEC0319, (3S)-3-(7-(Benzylamino)-3-isopropylpyrazolo[1,5-a]pyrimidin-5-ylamino)butane-1,2,4-triol]	–	75
CC(C)c1cnn2c(NCc3ccccc3)cc(N[C@@H](CO)[C@H](O)CO)nc12 [ICEC0318, (3S)-3-(7-(Benzylamino)-3-isopropylpyrazolo[1,5-a]pyrimidin-5-ylamino)butane-1,2,4-triol]	–	50
